AlphaSeq binding of Ab-95 light chain variants to a spike HR2 peptide

Antigen: PDVDLGDISGINAS, a 14-residue peptide of the SARS-CoV-2 spike HR2 region.

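The parent was found by panning a naive human phage display library on the peptide. Library AAYL52 holds single substitutions and randomly drawn double and triple substitutions in the CDRs. Affinity was read by AlphaSeq, a pooled yeast mating assay with surface-displayed partners. The frequency of each diploid, read from paired DNA barcodes, reflects how well the two displayed proteins bind. Each replicate has its own calibration line, from reference interactions of the BCL2 family. The assay was run in three technical replicates.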

Parent scFv Ab-95: VH joined to VL by three GGGGS repeats. Changes lie in the light chain CDRs alone.
VH: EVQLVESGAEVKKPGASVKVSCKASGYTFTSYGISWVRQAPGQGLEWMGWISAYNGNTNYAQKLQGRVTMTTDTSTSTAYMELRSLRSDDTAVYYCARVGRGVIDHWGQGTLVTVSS
VL: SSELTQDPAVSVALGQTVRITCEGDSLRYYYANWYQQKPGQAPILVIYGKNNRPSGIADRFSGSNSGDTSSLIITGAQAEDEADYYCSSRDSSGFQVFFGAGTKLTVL

The parent's light chain CDRs are EGDSLRYYYAN, GKNNRPS, SSRDSSGFQVF; each variant's own CDRs replace them letter for letter. Values are log10 of the apparent Kd in nM; lower means stronger binding. The mean shown is taken over the replicates in which the pair was detected. An entry "n.d." has no value in the source: the pair was not observed among the diploids in that replicate. This suggests poor binding but is not conclusive. For reference, the parent read 2.31 as the reference entry and 2.25 as a member of this library. Background: pairings of library AAYL52 with three empty control strains gave a value in 28% of cases (median 3.91, 5th percentile 2.90). Values in that range, when seen in few replicates, are hard to tell from nonspecific mating. Also given: how often the same scFv was detected with the empty control strains, with their mean in brackets.

| log10 Kd (nM) by replicate | mean log10 Kd (nM) | signal with controls | CDR-L1 | CDR-L2 | CDR-L3 |
|---|---|---|---|---|---|
| 2.69 3.14 2.28 | 2.70 | 2/9 (3.45) | EGDSLRYYYAN | GKNNRPM | SSFDSSGHQVF |
| 3.28 3.00 2.49 | 2.92 | 1/9 (3.52) | EHDSLRYYYAN | GKNNRPS | SSRDSSGFLVF |
| n.d. n.d. n.d. | n.d. | 2/9 (2.99) | EGDSLRYYYAN | GKNNRPS | SSRRDSGFQDF |
| n.d. 3.30 n.d. | 3.30 | 0/9 | EGDSLRYYYAN | GWNNRPS | SSRNSSGFQVF |
| n.d. 3.05 n.d. | 3.05 | 1/9 (2.28) | EGDSLRYYYAN | GKNNRPS | SSLDSSGFQVA |
| 0.99 0.80 0.42 | 0.74 | 1/9 (5.43) | EGDSLRYGYAN | GKNTRPS | SMRDSSGFQVF |
| 2.90 3.42 2.42 | 2.91 | 4/9 (4.50) | EGDSLRYYYAN | GENNRPS | SSCDSSGFHVF |
| n.d. n.d. n.d. | n.d. | 1/9 (3.57) | EGDSLRYYYAN | GKNNRPS | KFRPSSGFQVF |
| 2.17 2.00 2.13 | 2.10 | 2/9 (4.22) | FGDSLRYYYFN | GKNNRHS | SSRDSSGFQVF |
| 4.59 n.d. n.d. | 4.59 | 2/9 (3.26) | EGISLRYYYAN | PKNNRPS | SSRDSSGFMVF |
| 3.83 n.d. n.d. | 3.83 | 2/9 (3.78) | EIDSLRYYYAN | GKNNRPS | SKRDSSGFTVF |
| 2.79 2.61 2.85 | 2.75 | 2/9 (3.81) | PGDSLRYYIAN | GKNNRPS | SSRDSSGFQVA |
| 3.42 n.d. n.d. | 3.42 | 3/9 (4.26) | EGDSLRYYYAN | GKNNRSS | SSHDSSGFTVF |
| 2.60 2.20 2.64 | 2.48 | 4/9 (4.28) | EGTSLRYYVPN | GKNNRPS | SSRDSSGFQVF |
| n.d. 5.52 3.48 | 4.50 | 3/9 (3.53) | EIDWLRYYYAN | GKNERPS | SSRDSSGFQVF |
| 3.96 4.73 4.11 | 4.27 | 4/9 (3.99) | EGDSLRDYYAQ | GKNNRPS | SSRDSSQFQVF |
| 3.04 3.91 2.87 | 3.28 | 0/9 | EGDSRRYYYAN | GGNNRQS | SSRDSSGFQVF |
| 1.97 1.85 1.70 | 1.84 | 4/9 (4.06) | NGDSLKYYYTN | GKNNRPS | SSRDSSGFQVF |
| 4.16 n.d. n.d. | 4.16 | 3/9 (3.89) | EGDSIRYYYAN | GKENRPS | SSRDSSGFQVD |
| 3.89 n.d. 4.48 | 4.19 | 2/9 (4.39) | EGDSLRYYYAN | PHNNRPS | SSRDHSGFQVF |
| 3.77 3.85 2.96 | 3.53 | 3/9 (3.81) | WGGSLRYYYAN | GKNNRPS | SSRDSSQFQVF |
| 2.18 2.34 1.63 | 2.05 | 3/9 (3.90) | EGDSLRYYYAN | GKNNRPS | SSRDSSKFQVY |
| 4.21 5.25 n.d. | 4.73 | 3/9 (3.88) | EGDSLREYYAN | GKNNRPS | SSRDSYGFQVF |
| 4.36 5.20 n.d. | 4.78 | 5/9 (4.38) | EGWSLRVYYAN | GKNNRPS | SSRDGSGFQVF |
| 2.16 2.52 1.98 | 2.22 | 2/9 (3.43) | EGDSLRPYYAN | GKNNRTS | SSRDHSGFQVF |
| 1.57 1.62 1.18 | 1.46 | 2/9 (3.61) | LGDSLRYNYAN | GKNNRPS | SSRDSDGFQVF |
| n.d. 3.34 n.d. | 3.34 | 1/9 (4.01) | EGNSLRYYYAN | GVNNRPS | SSRGSSGFQVF |
| 2.95 2.44 2.87 | 2.75 | 5/9 (3.86) | EGDSLRYYQAN | GKNNRTS | SSRDSSGFQNF |
| 3.29 n.d. n.d. | 3.29 | 5/9 (4.25) | EGDSLRYYYAN | GKNLRTS | SSRDSSHFQVF |
| 4.63 5.77 n.d. | 5.20 | 3/9 (4.34) | EGDSLRYYYAN | GKMNRLV | SSRDSSGFQVF |
| 5.05 n.d. n.d. | 5.05 | 1/9 (3.21) | EGDSHRYYYAN | GKNNRPS | SSRDTSTFQVF |
| 2.76 3.02 2.21 | 2.66 | 5/9 (3.84) | EGDSLEYYVAN | GKNNRSS | SSRDSSGFQVF |
| 3.06 3.43 n.d. | 3.24 | 3/9 (3.90) | EGDKLRYYYAN | GKNIRPS | SSRPSSGFQVF |
| 2.26 2.20 1.76 | 2.07 | 1/9 (4.55) | EGDSLRYYYAN | GNNNRPR | SSRDSSGFQVF |
| 3.78 3.45 n.d. | 3.61 | 2/9 (2.95) | EGNSLRYYYAN | GKNKRPS | SSRDSSGFQGF |
| n.d. n.d. n.d. | n.d. | 3/9 (3.48) | ERDSLRYYYYN | GKNNRPS | SSNDSSGFQVF |
| 5.45 4.16 n.d. | 4.81 | 2/9 (3.63) | EMDSLRYYYAN | YKNNRPS | SSRESSGFQVF |
| 3.68 3.74 n.d. | 3.71 | 3/9 (3.87) | EGDSLRRYYAN | GKNNRPS | SSRDSSYFQVM |
| 4.47 4.46 n.d. | 4.47 | 4/9 (4.62) | EGDSLRYYYAA | GKNNRPS | SSRDSSWHQVF |
| n.d. n.d. 3.49 | 3.49 | 5/9 (4.14) | EGDSLFYTYAN | GKINRPS | SSRDSSGFQVF |
| 4.14 3.79 3.65 | 3.86 | 2/9 (3.58) | EGDSVRYYYAN | GKDNRSS | SSRDSSGFQVF |
| 3.52 4.04 2.28 | 3.28 | 1/9 (3.17) | EGDSLRYYDAN | GKNNRPK | SSRESSGFQVF |
| 2.63 3.10 3.71 | 3.15 | 2/9 (3.27) | EGKSLRYYYAN | QKNNRPA | SSRDSSGFQVF |
| 2.70 2.45 2.02 | 2.39 | 5/9 (3.43) | EGDSLRYYYAN | GKNNRPS | SCRDDSGMQVF |
| 2.32 2.20 2.19 | 2.24 | 4/9 (4.79) | EGSSLRYYYAN | GANNRPS | SSRDSSWFQVF |
| 3.02 2.78 3.41 | 3.07 | 5/9 (4.11) | EGDALRYYYAN | GKNNRLS | SSRDSSGNQVF |
| 2.29 2.23 2.57 | 2.36 | 5/9 (4.02) | EGDSLRAYYAN | GKNNRPS | SSRHSSGFQCF |
| 5.41 2.82 3.05 | 3.76 | 4/9 (4.24) | EQDTLRYYYAN | GKNNRPS | SSRDTSGFQVF |

For reference, 5 entries of the list once more:

| CDR-L1 | CDR-L2 | CDR-L3 | log10 Kd (nM) by replicate | mean log10 Kd (nM) | signal with controls |
|---|---|---|---|---|---|
| EGNSLRYYYAN | GVNNRPS | SSRGSSGFQVF | n.d. 3.34 n.d. | 3.34 | 1/9 (4.01) |
| EQDTLRYYYAN | GKNNRPS | SSRDTSGFQVF | 5.41 2.82 3.05 | 3.76 | 4/9 (4.24) |
| EGDSLRYYYAN | GKNNRPM | SSFDSSGHQVF | 2.69 3.14 2.28 | 2.70 | 2/9 (3.45) |
| EGDSLFYTYAN | GKINRPS | SSRDSSGFQVF | n.d. n.d. 3.49 | 3.49 | 5/9 (4.14) |
| EMDSLRYYYAN | YKNNRPS | SSRESSGFQVF | 5.45 4.16 n.d. | 4.81 | 2/9 (3.63) |

Reference: Engelhart et al. 2022, doi:10.1038/s41597-022-01779-4. File: FLAb, binding data.